Experimental data as given in PubChem BioAssay AID602438 (Sanford-Burnham Center for Chemical Genomics, 2012).
Only a part is listed here, and it is no random draw. Active and inactive are the calls of the source.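 Rule for the calls: active = inhibition or corrected inhibition above about 18%, plus a signal ratio from 0.5 to 1.5 (limit read from the data, passing the limit was not always enough); inactive = the rest.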

By UniProt entry, the sequences of proteins in these tests, tags left out.
UniProt O14786, whole entry: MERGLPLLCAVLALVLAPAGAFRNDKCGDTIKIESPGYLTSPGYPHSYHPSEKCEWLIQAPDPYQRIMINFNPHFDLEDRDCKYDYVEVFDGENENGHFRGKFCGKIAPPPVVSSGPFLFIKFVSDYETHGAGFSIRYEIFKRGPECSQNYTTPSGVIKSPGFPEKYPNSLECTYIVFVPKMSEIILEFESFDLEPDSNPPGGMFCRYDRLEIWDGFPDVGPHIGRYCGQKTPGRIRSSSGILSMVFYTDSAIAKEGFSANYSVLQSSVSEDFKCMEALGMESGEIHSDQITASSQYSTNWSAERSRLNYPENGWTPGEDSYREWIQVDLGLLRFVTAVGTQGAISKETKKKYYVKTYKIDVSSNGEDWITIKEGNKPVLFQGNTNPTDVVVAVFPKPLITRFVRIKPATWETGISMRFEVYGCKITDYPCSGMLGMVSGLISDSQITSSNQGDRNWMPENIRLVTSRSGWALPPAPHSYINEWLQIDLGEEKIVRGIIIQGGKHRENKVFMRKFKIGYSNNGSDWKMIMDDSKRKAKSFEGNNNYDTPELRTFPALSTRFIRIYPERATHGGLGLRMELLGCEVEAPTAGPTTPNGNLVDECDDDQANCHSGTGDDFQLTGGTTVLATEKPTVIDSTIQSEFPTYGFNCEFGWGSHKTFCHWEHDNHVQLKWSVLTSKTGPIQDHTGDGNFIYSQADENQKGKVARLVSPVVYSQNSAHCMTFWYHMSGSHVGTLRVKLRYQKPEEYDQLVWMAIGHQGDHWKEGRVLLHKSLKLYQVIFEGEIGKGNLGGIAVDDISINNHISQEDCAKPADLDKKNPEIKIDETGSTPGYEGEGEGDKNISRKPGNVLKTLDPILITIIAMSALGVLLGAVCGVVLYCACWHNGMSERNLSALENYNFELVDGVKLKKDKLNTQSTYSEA

Molecular target: Neuropilin-1 (Homo sapiens) (UniProt O14786)
Assay: modulators of CendR peptide binding to NRP-1, primary screen, biochemical, fluorescence polarization, uHTS (AID 602438)
Conditions: FAM-RPARPAR peptide binding to NRP-1, fluorescence polarization; at 25 µM; stronger effect = higher value

SMILES | inhibition
Cc1ccccc1NC1(C#N)CCN(Cc2ccccc2)CC1 | inactive: 5.9%
CC(C)(C)n1nnnc1C(c1ccnc2ccccc12)N1CCC(n2c(=O)[nH]c3ccccc32)CC1 (centres undefined) | inactive: 11.2%
COc1ccc(C(c2nnnn2C2CCCCC2)N2CCC(n3c(=O)[nH]c4ccccc43)CC2)cc1 (centres undefined) | inactive: 13.1%
CCN1CCC(Nc2cccc(F)c2)CC1 | inactive: -11.4%
O=C(NCC1(N2CCCCC2)CCCCC1)c1ccco1 | inactive: -6%
Cn1c(=O)[nH]cc(N(CCCl)CCCl)c1=O | inactive: 3.2%
CN(C)c1ccc(C(=O)NCC2(N3CCCCC3)CCCCC2)cc1 | inactive: -1.2%
O=c1[nH]c2ccccc2n1C1CCN(C(c2ccnc3ccccc23)c2nnnn2C2CCCCC2)CC1 (centres undefined) | inactive: -3.7%
COc1cc(OC)cc(C(=O)NCC2(N3CCCCC3)CCCCC2)c1 | inactive: -11.3%
CC(=O)N(c1ccccc1)C1CCNCC1 | inactive: 9.4%
COc1cccc(C(c2nnnn2C2CCCCC2)N2CCC(n3c(=O)[nH]c4ccccc43)CC2)c1OC (centres undefined) | inactive: 7.4%
CCC(c1nnnn1C1CCCCC1)N1CCC(n2c(=O)[nH]c3ccccc32)CC1 (centres undefined) | inactive: -9.2%
Cc1ccc(NC2(C#N)CCN(Cc3ccccc3)CC2)cc1 | inactive: 8%
Cc1ccc(C(=O)NCC2(N3CCCCC3)CCCCC2)o1 | inactive: -3%
Fc1ccccc1NC1CCN(Cc2ccccc2)CC1 | inactive: 7%
CCC(CO)(C(=O)OC1CN2CCC1CC2)c1ccccc1 (centres undefined) | inactive: -10.4%
COc1cc(OC)cc(C(=O)NCC2(N3CCOCC3)CCCCC2)c1 | inactive: 11.7%
COc1cccc(C(c2nnnn2C2CCCC2)N2CCC(n3c(=O)[nH]c4ccccc43)CC2)c1OC (centres undefined) | inactive: 3.3%
COc1cccc(C(=O)N(c2cc(C)cc(C)c2)C2CCN(C(=O)OC(C)(C)C)CC2)c1 | inactive: -4.2%
CN1CCC(Nc2ccc(Cl)cc2)CC1 | inactive: 1.5%
CCOc1ncccc1C(=O)NCC1(N2CCOCC2)CCCCC1 | inactive: -2.9%
CN1CCC(Nc2ccc(F)c(Cl)c2)CC1 | inactive: 4.3%
CCCOc1ccc(C(=O)NCC2(N(C)C)CCCCC2)cc1 | inactive: 2.1%
O=c1[nH]c2ccccc2n1C1CCN(C(c2cc3ccccc3o2)c2nnnn2C2CCCC2)CC1 (centres undefined) | inactive: 9.1%
CC(C)(C)OC(=O)N1CCC(Nc2ccccc2)CC1 | inactive: 16.1%
O=C(O)C1(Nc2ccccc2)CCN(Cc2ccccc2)CC1 | inactive: -0.8%
NN(c1ccccc1)C1CCN(CCc2ccccc2)CC1 | inactive: -7.4%

SMILES | inhibition
N/C(=N\O)c1c(N)no[n+]1[O-] | inactive: -3%
COc1cccc(C(c2nnnn2C(C)(C)C)N2CCC(n3c(=O)[nH]c4ccccc43)CC2)c1OC (centres undefined) | inactive: -9.2%
CCOC(=O)N1CCC(Nc2ccc(C)cc2)CC1 | inactive: 8%
CCCCn1nnnc1C(c1cccc(OC)c1OC)N1CCC(n2c(=O)[nH]c3ccccc32)CC1 (centres undefined) | inactive: 12.9%
O=C(OC1CN2CCC1CC2)C1c2ccccc2C=Cc2ccccc21 (centres undefined) | inactive: 3%
O=c1[nH]c2ccccc2n1C1CCN(C(c2cccs2)c2nnnn2C2CCCC2)CC1 (centres undefined) | inactive: 2.8%
O=C(NCC1(N2CCOCC2)CCCCC1)c1cc(Br)ccc1Cl | inactive: 2.2%
CCCCn1nnnc1C(c1ccccc1)N1CCC(n2c(=O)[nH]c3ccccc32)CC1 (centres undefined) | inactive: 12.8%
COc1cc(C(=O)NCC2(N3CCOCC3)CCCCC2)cc(OC)c1C | inactive: 9.7%
COc1ccc(C(=O)NCC2(N3CCOCC3)CCCCC2)cc1OC | inactive: 3.9%
O=c1[nH]c2ccccc2n1C1CCN(C(c2ccnc3ccccc23)c2nnnn2C2CCCC2)CC1 (centres undefined) | inactive: -0.1%
O=c1[nH]c2ccccc2n1C1CCN(C(c2cccs2)c2nnnn2C2CCCCC2)CC1 (centres undefined) | inactive: -9.7%
c1ccc(CN2CCC(Nc3ccccc3)CC2)cc1 | inactive: 2.5%
O=c1[nH]c2ccccc2n1C1CCN(C(c2ccccc2)c2nnnn2C2CCCC2)CC1 (centres undefined) | inactive: 2%
CCCN1CCC(Nc2cc(OC)cc(OC)c2)CC1 | inactive: 16%
Cc1cc(N(CCCl)CCCl)ccc1C=O | inactive: 15.6%
CN(C)C1(CNC(=O)c2cccc(C#N)c2)CCCCC1 | inactive: 8%
CC(C)(C)n1nnnc1C(c1cccc2ccccc12)N1CCC(n2c(=O)[nH]c3ccccc32)CC1 (centres undefined) | inactive: 2.5%
CC(C)(C)OC(=O)N1CCC(N(C(=O)c2ccccc2)c2ccc(Cl)cc2)CC1 | inactive: 6.5%
N#Cc1ccc(C(=O)NCC2(N3CCCCC3)CCCCC2)cc1 | inactive: 14.8%
O=C(NCC1(N2CCCCC2)CCCCC1)c1cccc(C(F)(F)F)c1 | inactive: -1.9%
CCCCn1nnnc1C(c1cccc2ccccc12)N1CCC(n2c(=O)[nH]c3ccccc32)CC1 (centres undefined) | inactive: -1.7%
CN1CCN(CCOC(=O)C(O)(c2ccccc2)c2ccccc2)CC1 | inactive: -5%
COc1ccc(NC2CCN(C(=O)OC(C)(C)C)CC2)cc1 | inactive: -4%
CC(C)c1ccc(C(=O)NCC2(N3CCOCC3)CCCCC2)cc1 | inactive: 6.3%
COc1cc(C(=O)NCC2(N3CCCCC3)CCCCC2)ccc1OC(F)F | inactive: -7.5%
O=C(NCC1(N2CCOCC2)CCCCC1)c1cc(=O)[nH]c2ccccc12 | inactive: -9%
